# Measured values taken from patent publication US20200208128A1, “METHODS OF TREATING LIVER DISEASES” (CAMP4 THERAPEUTICS CORPORATION, priority 2017, published 2020).
# B1: BMP2 (protein, UniProt P12643 283-396, looked up)
# Bone morphogenetic protein 2: QAKHKQRKRLKSSCKRHPLYVDFSDVGWNDWIVAPPGYHAFYCHGECPFPLADHLNSTNHAIVQTLVNSVNSKIPKACCVPTELSAISMLYLDENEKVVLKNYQDMVVEGCGCR
# How the values were obtained:
# PNPLA3 = assay: RNA-seq of compound-treated primary human hepatocytes: PNPLA3 expression; format: cell-based
# PNPLA5 = assay: RNA-seq of compound-treated primary human hepatocytes: PNPLA5 expression; format: cell-based
# Description: This protocol is a modified version of the following protocols: MagMAX mirVana Total RNA Isolation Kit User Guide (Applied Biosystems # MAN0011131 Rev B.0), NEBNext Poly(A) mRNA Magnetic Isolation Module (E7490), and NEBNext Ultra Directional RNA Library Prep Kit for Illumina (E7420) (New England Biosystems # E74901).
# All obtained reads from each sample were mapped against the human genome (hg19 build) using STAR_2.5.2b, which allows mapping across splice sites by reads segmentation (Dobin et al., Bioinformatics (2012) 29 (1): 15-21, which is hereby incorporated by reference in its entirety). The uniquely mapped reads were subsequently assembled into transcripts guided by reference annotation (RefSeq gene models) (Pruitt et al., Nucleic Acids Res. 2012 January; 40(Database issue): D130-D35, which is incorporated by reference in its entirety) with Cuffnorm v2.2.1 (Trapnell et al., Nature Protocols 7, 562-578 (2012), which is hereby incorporated by reference in its entirety). The expression level of each gene was quantified with normalized FPKM (fragments per kilobase of exon per million mapped fragments). […]
# RNA-seq was performed to determine the effects of the compounds on PNPLA3 expression in hepatocytes. Fold change was calculated by dividing the level of expression in the cell system that had been perturbed by the level of expression in an unperturbed system. […]
molecule,measurement,setting,value
B1,Upregulation of PNPLA3 in the RNA-seq study,PNPLA3,best upregulators
same,Upregulation of PNPLA5 in the RNA-seq study,PNPLA5,best upregulators
